The experiment deals with phosphodiesterase IX (Homo sapiens (Human), UniProt O76083). The experiment can be described thus: Inhibition activity to the phosphodiesterase IX. The following applies: concentration of the inhibitor when the inhibition rate reaches 50%. It counts as biochemical.

By UniProt entry, the sequences of proteins in these tests, tags left out. Where a name states a change or a piece, a line headed by the entry shows the natural chain unless it says otherwise.
UniProt O76083: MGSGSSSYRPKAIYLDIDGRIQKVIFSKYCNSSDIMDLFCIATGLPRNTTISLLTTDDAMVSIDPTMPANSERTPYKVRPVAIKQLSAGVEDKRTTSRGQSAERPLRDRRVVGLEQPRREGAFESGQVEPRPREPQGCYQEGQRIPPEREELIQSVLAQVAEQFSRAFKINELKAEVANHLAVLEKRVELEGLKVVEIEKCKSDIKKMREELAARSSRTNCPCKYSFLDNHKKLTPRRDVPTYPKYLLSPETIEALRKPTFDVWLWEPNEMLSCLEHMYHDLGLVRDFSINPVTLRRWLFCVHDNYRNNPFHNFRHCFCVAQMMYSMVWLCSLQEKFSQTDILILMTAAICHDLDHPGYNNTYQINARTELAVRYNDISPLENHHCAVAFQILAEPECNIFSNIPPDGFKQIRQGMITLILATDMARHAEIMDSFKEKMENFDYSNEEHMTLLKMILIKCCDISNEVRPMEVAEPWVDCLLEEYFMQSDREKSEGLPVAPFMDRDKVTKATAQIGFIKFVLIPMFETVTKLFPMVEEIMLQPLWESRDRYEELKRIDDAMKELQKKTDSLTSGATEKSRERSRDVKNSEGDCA

For the compound `CC(Nc1nc2c(cnn2C2CCCC2)c(=O)[nH]1)c1ccc(Cl)cc1` (stereo not shown) [WYQ-46], the IC50 (as a rule, the midpoint of a concentration-inhibition curve) is 6 nM.

The values are drawn from patent US9617269B2.
